According to patent publication US9327023B2, “HER2 targeting agent treatment in non-HER2-amplified cancers having HER2 expressing cancer stem cells” (The Regents of the University of Michigan, priority 2011, dated 2016):
“Also recorded” adds a separate entry of the source.

Key:
MCF7 [1] = assay: mammosphere assay; type: cell-based, human; details: MCF7, 1-week trastuzumab 20 μg/μl
Protocol: (§1) Human breast cancer cell lines, MCF7, ZR75-1, BT474, SKBR3 and SUM159 were employed. The MCF-7 cell line was obtained from ATCC and fingerprinting was done on the MCF-7shHER-2 and MCF-7shVector cell lines, validating that they were MCF-7 prior to injections into tibiae. Cell lines were grown using recommended culture condition. Trastuzumab was obtained from the Pharmacy, University of Michigan Comprehensive Cancer Center.
(§2) Single cells were initially plated on ultralow attachment plate at a density of 100,000 cells/ml with serum-free mammary epithelial basal medium (Mammocult, Stemcell Technologies). Mammosphere were counted manually under light microscope on the 7th day. Then, mammosphere dissociation was performed and re-cultured with the density of 10,000 cells/ml and further assessed for secondary and tertiary mammosphere formation. Efficiency of sphere forming was analyzed from at least 3 independent repeats.

SUM159 [2] = assay: mammosphere assay; type: cell-based, human; details: basal/claudin low SUM159
Protocol: as §1, §2

ZR75-1 [3] = assay: mammosphere assay; type: cell-based, human; details: ZR75-1, 1-week trastuzumab 20 μg/μl
Protocol: as §1, §2

MCF7 [4] = assay: Aldefluor assay in vitro; type: cell-based, human
Protocol: as §1
(§3) The Aldefluor kit (Stemcells Technology) was used according to the manufacturer's protocol to identify and isolate the population with high Aldehyde dehydrogenase activities using flow cytometry. To distinguish between ALDH-positive and ALDH-negative cells, a fraction of cells were incubated under identical condition in the presence of 10-fold molar excess of ALDH inhibitor, diethylaminobenzaldehyde (DEAB). Both samples and negative control were incubated in 37° C. for 40 minutes. For FACS analysis the gates were normalized with the Aldefluor-stained cells treated with DEAB.

MDA-MB231 = assay: Aldefluor assay in vitro; type: cell-based, human
Protocol: as §1, §3

SUM159 [5] = assay: Aldefluor assay in vitro; type: cell-based, human
Protocol: as §1, §3

ZR75-1 [6] = assay: Aldefluor assay in vitro; type: cell-based, human; details: ZR75-1 (b158 prints ZR25-1)
Protocol: as §1, §3

[7] = system: MCF7 cells (parental, HER2+, PTEN-, HER2+PTEN-); assay: tumorsphere assay, secondary spheres; type: cell-based, human
Protocol: (§4) Single cells were plated on ultra-low attachment plates at a density of 1×10^5/ml and grown for 7 days in a mammocult medium (Stem Cell Technologies). After the treatment of primary spheres, they were dissociated into single-cell suspension and plated at a density of 5×10^3-1×10^4/ml for the subsequent passages. Secondary spheres were counted after 5-7 days in culture.

[8] = system: SUM159 cells (parental, HER2+, PTEN-, HER2+PTEN-); assay: tumorsphere assay, secondary spheres; type: cell-based, human
Protocol: as §4

[9] = system: MCF7-HER2+ and MCF7-HER2+PTEN- cells; assay: Aldefluor assay in vitro, engineered cells; type: cell-based, human; details: for reduced the Aldefluor-positive population: MCF7-HER2+ cells; for Aldefluor-positive population: MCF7-HER2+PTEN- cells
Protocol: (§5) To measure ALDH activity, the Aldefluor assay was carried out according to manufacturer's guidelines (StemCell Technologies, Inc., Durham, N.C.). Indicated cells were incubated with fluorophore-conjugated CD44 or CD24 antibodies alone or in combination on ice for 30 min, washed with Hank's balanced salt solution (HBSS), and resuspended in DAPI containing HBSS buffer for flow cytometry analyses.

[10] = system: SUM159-HER2+ and SUM159-HER2+PTEN- cells; assay: Aldefluor assay in vitro, engineered cells; type: cell-based, human; details: for reduced the Aldefluor-positive population: SUM159-HER2+ cells; for Aldefluor-positive population: SUM159-HER2+PTEN- cells
Protocol: as §5

MCF7-HER2+ xenografts = assay: MCF7-HER2+ xenografts; type: in vivo, NOD/SCID mice
Protocol: (§6) Treatments for all early settings were 8 weeks long. […] Drug doses were as described in early setting.
(§7) Experiments were conducted during development of embodiments of the present invention to examine the biological consequences of increased CSC populations generated by HER2 overexpression and PTEN knockdown by implanting these cells into the mammary fat pads of NOD/SCID mice.

[11] = system: MCF7-HER2+PTEN- xenografts; assay: MCF7-HER2+PTEN- xenografts; type: in vivo, NOD/SCID mice
Protocol: as §6, §7

IL6 = IL6 secretion of BT474 cells under trastuzumab; type: cell-based, human; details: BT474-DsRed cells, 3 days of trastuzumab treatment
Protocol: To determine whether induction of the CSC phenotype was dependent on IL6 production, the effect of addition of IL6 receptor antibody on induction of the CSC phenotype was assessed. […] The ability of the anti-IL6R antibody to affect the CD44^+/CD24^− population in Sum159 cells, which lack the expression of the luminal CD24 marker, was examined.

[12] = system: BT474-DsRed and BT474-PTEN- cells; assay: CD44+/CD24- flow cytometry of BT474 cells; type: cell-based, human; details: for proportion of CD44+/CD24- cells: BT474-PTEN cells
Protocol: as §5
However, there was approximately a 2-fold increase in IL6 secretion when cells were treated for 3 weeks or longer (SEE FIG. 14A). […] The effects of trastuzumab-mediated IL6 production on CSCs were also tested. […] In contrast, downregulation of PTEN in these cells generated a population that contained approximately 10% CD44^+/CD24^− cells (FIG. 14B). […] To determine whether induction of the CSC phenotype was dependent on IL6 production, the effect of addition of IL6 receptor antibody on induction of the CSC phenotype was assessed. […] The ability of the anti-IL6R antibody to affect the CD44^+/CD24^− population in Sum159 cells, which lack the expression of the luminal CD24 marker, was examined. […] This discrepancy may be explained by the existence of different stem cell populations in different breast cancer subtypes.

p65 NF-kB = p65 NF-kB phosphorylation; type: cell-based, human
Protocol: To determine whether NF-kB activation was involved in these processes, p65 NF-kB phosphorylation was assessed.

BT474-PTEN- cells = assay: mRNA expression of cytokines, EMT and epithelial markers; type: cell-based, human
BT474 cells [13] = assay: tumorspheres in suspension cultures of BT474 cells; type: cell-based, human
Protocol: as §4

BT474 cells [14] = assay: cell growth / viable cells of BT474 cells; type: cell-based, human
[15] = system: trastuzumab-sensitive BT474-DsRed xenografts; assay: BT474-DsRed xenografts; type: in vivo, NOD/SCID mice
[16] = system: trastuzumab-resistant BT474-PTEN- xenografts; assay: BT474-PTEN- xenografts; type: in vivo, NOD/SCID mice
Protocol: as §6
Experiments were conducted during development of embodiments of the present invention to examine the effect of anti-IL6R antibody on trastuzumab-sensitive BT474-DsRed and trastuzumab-resistant BT474-PTEN^− xenografts. […] To determine the effects of these treatments on the development of metastasis, we excised primary BT474-PTEN^− tumors after 8 weeks of treatment and assessed subsequent development of local and distant metastasis by luciferase imaging (FIG. 7D). […] The effects of these treatments were also reflected in human cytokine levels secreted in the bloodstream of these animals as determined by ELISA (FIG. 7E).

[17] = system: breast CSCs (tumor-initiating cells); assay: reimplantation assay of residual tumor cells into secondary mice; type: in vivo; details: residual tumors from treated mice
Text: One of the hallmarks of CSC model is their ability to initiate tumors in secondary reimplantation assays (Clarke et al., 2006; herein incorporated by reference in its entirety).

[18] = system: HER2 amplified breast cancers; details: addition of trastuzumab to chemotherapy compared to chemotherapy alone, adjuvant trials; cited from earlier work

trastuzumab
tertiary mammosphere formation (MCF7 [1]): significantly reduced; also recorded: significantly lower number
mammosphere formation (SUM159 [2]): no effect
tertiary mammosphere formation (ZR75-1 [3]): significantly reduced; also recorded: significantly lower number
percent of Aldefluor-positive cells (MCF7 [4]): significantly reduced; also recorded: lower percentage
Aldefluor-positive populations (MDA-MB231): no effect; also recorded: does not have suppressive effect
Aldefluor-positive populations (SUM159 [5]): no effect; also recorded: does not have suppressive effect
percent of Aldefluor-positive cells (ZR75-1 [6]): significantly reduced; also recorded: lower percentage
secondary tumorsphere formation ([7]; MCF7-HER2+PTEN- cells): no significant effect; also recorded: not affected
secondary spheres ([7]; MCF7-PTEN- cells): not affected
tumorsphere formation ([7]; parental MCF7 cells, primary spheres treated 5-7 days): no significant effect
secondary tumorsphere formation ([8]; SUM159-HER2+PTEN- cells): no significant effect; also recorded: not affected
secondary spheres ([8]; Sum159-PTEN- cells): not affected
tumorsphere formation ([8]; parental SUM159 cells, primary spheres treated 5-7 days): no significant effect
reduced the Aldefluor-positive population [9]: 75%
reduced the Aldefluor-positive population ([9]; listed as Trastuzumab): more than 50%
Aldefluor-positive population [9]: non-significant change
Aldefluor-positive population ([9]; listed as Trastuzumab): no effect
reduced the Aldefluor-positive population [10]: 50%
reduced the Aldefluor-positive population ([10]; listed as Trastuzumab): more than 50%
Aldefluor-positive population [10]: non-significant change
Aldefluor-positive population ([10]; listed as Trastuzumab): no effect
percentage of Aldefluor-positive tumor cells reduced (MCF7-HER2+ xenografts; MCF7-HER2+ tumors): over 50%
tumor size / growth (MCF7-HER2+ xenografts; MCF7-HER2+ xenografts, trastuzumab treatment): reduced tumor size; also recorded: inhibition of tumor growth
Aldefluor-positive populations ([11]; MCF7-HER2+PTEN- tumors): slight increase
response of tumors to trastuzumab ([11]; MCF7-HER2+PTEN- xenografts): de novo resistance; also recorded: resistant
IL6 levels (IL6): modest decrease
proportion of CD44+/CD24- cells ([12]; trastuzumab 3 weeks): 51%
proportion of CD44+/CD24- cells ([12]; trastuzumab 3 days (about 10% without)): 32%
CD44+/CD24- cells ([12]; parental BT474-DsRed cells after trastuzumab treatment): not significantly altered
NF-kB phosphorylation (p65 NF-kB; BT474-PTEN- cells compared to parental cells): Increased
NF-kB phosphorylation (p65 NF-kB; SKBR3-PTEN- cells compared to parental cells): Increased
epithelial-associated genes E-cadherin, EpCAM, and Claudin (BT474-PTEN- cells): downregulation
reduced the sphere forming cells (BT474 cells [13]; BT474 cells): more than 50%
sphere formation (BT474 cells [13]; BT474 cells in the presence of IL6 or CM): failed to inhibit
cell growth / viability (BT474 cells [14]; BT474-PTEN- cells): unaffected
cell growth / viability (BT474 cells [14]; BT474-PTEN- cells, listed as Trastuzumab): no effect
cell growth / viability (BT474 cells [14]; parental BT474 cells with CM from BT474-PTEN-LTT cells or recombinant IL6): resistant
cell growth / viability (BT474 cells [14]; parental BT474 cells with CM from BT474-PTEN-LTT cells or recombinant IL6, listed as Trastuzumab): no effect
growth of BT474-DsRed xenografts ([15]; 7-week period, compared to saline): significantly inhibited
tumors in trastuzumab-treated mice began to grow (acquired resistance) ([15]; mouse, in vivo): ≤ 5 Week
growth of BT474-PTEN- xenografts ([16]; early treatment): accelerated; also recorded: no effect
secondary tumors and distant metastasis after excision of primary tumors ([16]; excised after 8 weeks of treatment, luciferase imaging): quickly developed secondary tumors and distant metastasis
serum IL6 levels ([16]; human specific ELISA): markedly increasing; also recorded: significantly higher
frequency of breast CSCs [17]: increased
reduction in recurrence rate [18]: 50%
